Key:
[1] = solubility and stability characteristics compared to human amylin; type: physicochemical
[2] = adsorption onto glass container in liquid form; type: physicochemical

Row | SMILES | solubility and stability characteristics [1] | tendency to adsorb onto the glass in a glass container [2]
1 | CC[C@H](C)[C@H](NC(=O)[C@@H]1CCCN1C(=O)CNC(=O)[C@H](Cc1ccccc1)NC(=O)[C@H](CC(N)=O)NC(=O)[C@H](CC(N)=O)NC(=O)[C@H](CO)NC(=O)[C@H](CO)NC(=O)[C@H](Cc1c[nH]cn1)NC(=O)[C@@H](NC(=O)[C@H](CC(C)C)NC(=O)[C@H](Cc1ccccc1)NC(=O)[C@H](CC(N)=O)NC(=O)[C@H](C)NC(=O)[C@H](CC(C)C)NC(=O)[C@H](CCCNC(=N)N)NC(=O)[C@H](CCC(N)=O)NC(=O)[C@@H](NC(=O)[C@H](C)NC(=O)[C@@H]1CSSC[C@H](NC(=O)[C@@H](N)CCCCN)C(=O)N[C@@H](CC(N)=O)C(=O)N[C@@H]([C@@H](C)O)C(=O)N[C@@H](C)C(=O)N[C@@H]([C@@H](C)O)C(=O)N1)[C@@H](C)O)C(C)C)C(=O)N[C@@H](CC(C)C)C(=O)N1CCC[C@H]1C(=O)N1CCC[C@H]1C(=O)N[C@H](C(=O)N[C@@H](CC(N)=O)C(=O)N[C@H](C(=O)NCC(=O)N[C@@H](CO)C(=O)N[C@@H](CC(N)=O)C(=O)N[C@H](C(=O)N[C@@H](Cc1ccc(O)cc1)C(N)=O)[C@@H](C)O)C(C)C)[C@@H](C)O [^25,28,29Pro-h-amylin, reference compound] | more desirable solubility and stability characteristics | does not have a tendency to adsorb onto the glass
2 | CC(C)C[C@H](NC(=O)[C@H](CCCNC(=N)N)NC(=O)[C@H](CCC(N)=O)NC(=O)[C@@H](NC(=O)[C@H](C)NC(=O)[C@@H]1CSSC[C@H](NC(=O)[C@@H](N)CCCCN)C(=O)N[C@@H](CC(N)=O)C(=O)N[C@@H]([C@@H](C)O)C(=O)N[C@@H](C)C(=O)N[C@@H]([C@@H](C)O)C(=O)N1)[C@@H](C)O)C(=O)N[C@@H](C)C(=O)N[C@@H](CC(N)=O)C(=O)N[C@@H](Cc1ccccc1)C(=O)N[C@@H](CC(C)C)C(=O)N[C@H](C(=O)N[C@@H](Cc1c[nH]cn1)C(=O)N[C@@H](CO)C(=O)N[C@@H](CO)C(=O)N[C@@H](CC(N)=O)C(=O)N[C@@H](CC(N)=O)C(=O)N[C@@H](Cc1ccccc1)C(=O)NCC(=O)N1CCC[C@H]1C(=O)N[C@H](C(=O)N[C@@H](CC(C)C)C(=O)N1CCC[C@H]1C(=O)N1CCC[C@H]1C(=O)N[C@H](C(=O)N[C@@H](CC(N)=O)C(=O)N[C@H](C(=O)NCC(=O)N[C@@H](CO)C(=O)N[C@@H](CC(N)=O)C(=O)N[C@H](C(=O)N[C@@H](Cc1ccc(O)cc1)C(N)=O)[C@@H](C)O)C(C)C)[C@@H](C)O)C(C)C)C(C)C [^25Pro^26Val^28,29Pro-h-amylin] | more desirable solubility and stability characteristics | –
3 | CC[C@H](C)[C@H](NC(=O)[C@@H]1CCCN1C(=O)CNC(=O)[C@H](Cc1ccccc1)NC(=O)[C@H](CC(N)=O)NC(=O)[C@H](CC(N)=O)NC(=O)[C@H](CO)NC(=O)[C@H](CO)NC(=O)[C@H](CCCNC(=N)N)NC(=O)[C@@H](NC(=O)[C@H](CC(C)C)NC(=O)[C@H](Cc1ccccc1)NC(=O)[C@H](CC(N)=O)NC(=O)[C@H](C)NC(=O)[C@H](CC(C)C)NC(=O)[C@H](CCCNC(=N)N)NC(=O)[C@H](CCC(N)=O)NC(=O)[C@@H](NC(=O)[C@H](C)NC(=O)[C@@H]1CSSC[C@H](NC(=O)[C@@H](N)CCCCN)C(=O)N[C@@H](CC(N)=O)C(=O)N[C@@H]([C@@H](C)O)C(=O)N[C@@H](C)C(=O)N[C@@H]([C@@H](C)O)C(=O)N1)[C@@H](C)O)C(C)C)C(=O)N[C@@H](CC(C)C)C(=O)N1CCC[C@H]1C(=O)N[C@@H](CO)C(=O)N[C@H](C(=O)N[C@@H](CC(N)=O)C(=O)N[C@H](C(=O)NCC(=O)N[C@@H](CO)C(=O)N[C@@H](CC(N)=O)C(=O)N[C@H](C(=O)N[C@@H](Cc1ccc(O)cc1)C(N)=O)[C@@H](C)O)C(C)C)[C@@H](C)O [^18Arg^25,28Pro-h-amylin] | more desirable solubility and stability characteristics | –
